Measured values: ChEMBL document CHEMBL1122042, “Chemical synthesis and molecular pharmacology of hydroxylated 1-(1-phenylcyclohexyl-piperidine derivatives” (1982)
Values joined by “and” are separate entries in the source; they are usually repeats but may differ in a detail not shown here. Equal values may be shown once.

By UniProt entry, the sequences of proteins in these tests, tags left out. Where a name states a change or a piece, a line headed by the entry shows the natural chain unless it says otherwise.
UniProt P42866, whole entry, looked up: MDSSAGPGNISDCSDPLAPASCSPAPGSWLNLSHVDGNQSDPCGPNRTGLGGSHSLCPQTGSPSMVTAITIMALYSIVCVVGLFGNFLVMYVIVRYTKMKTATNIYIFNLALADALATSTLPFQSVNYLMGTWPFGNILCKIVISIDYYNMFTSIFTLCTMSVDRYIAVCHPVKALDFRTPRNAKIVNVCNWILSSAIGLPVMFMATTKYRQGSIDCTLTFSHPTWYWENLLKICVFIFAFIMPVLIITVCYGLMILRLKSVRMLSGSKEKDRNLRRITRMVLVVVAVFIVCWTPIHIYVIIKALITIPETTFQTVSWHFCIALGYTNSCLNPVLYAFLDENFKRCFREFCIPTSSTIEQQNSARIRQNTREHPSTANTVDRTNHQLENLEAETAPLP
UniProt P32300, whole entry, looked up: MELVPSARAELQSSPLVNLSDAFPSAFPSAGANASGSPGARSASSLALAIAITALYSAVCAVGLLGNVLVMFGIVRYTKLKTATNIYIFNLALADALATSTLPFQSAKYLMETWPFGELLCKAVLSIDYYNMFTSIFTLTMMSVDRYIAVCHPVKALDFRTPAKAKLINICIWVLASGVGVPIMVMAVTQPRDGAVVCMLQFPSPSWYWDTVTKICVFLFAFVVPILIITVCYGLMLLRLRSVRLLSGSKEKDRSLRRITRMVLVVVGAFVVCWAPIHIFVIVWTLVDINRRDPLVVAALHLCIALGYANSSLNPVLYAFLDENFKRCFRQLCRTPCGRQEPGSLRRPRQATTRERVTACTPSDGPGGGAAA
UniProt P33534: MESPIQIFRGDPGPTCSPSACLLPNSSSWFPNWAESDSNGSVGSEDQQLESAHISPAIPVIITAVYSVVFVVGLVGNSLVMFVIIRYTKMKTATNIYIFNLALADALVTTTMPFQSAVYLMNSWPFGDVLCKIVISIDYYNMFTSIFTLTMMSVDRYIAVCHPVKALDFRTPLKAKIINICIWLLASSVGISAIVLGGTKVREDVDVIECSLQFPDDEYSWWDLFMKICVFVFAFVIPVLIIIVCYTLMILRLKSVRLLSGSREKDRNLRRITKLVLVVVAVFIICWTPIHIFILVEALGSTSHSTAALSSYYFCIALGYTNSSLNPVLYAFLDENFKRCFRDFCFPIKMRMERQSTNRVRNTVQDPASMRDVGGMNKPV
UniProt Q920H4: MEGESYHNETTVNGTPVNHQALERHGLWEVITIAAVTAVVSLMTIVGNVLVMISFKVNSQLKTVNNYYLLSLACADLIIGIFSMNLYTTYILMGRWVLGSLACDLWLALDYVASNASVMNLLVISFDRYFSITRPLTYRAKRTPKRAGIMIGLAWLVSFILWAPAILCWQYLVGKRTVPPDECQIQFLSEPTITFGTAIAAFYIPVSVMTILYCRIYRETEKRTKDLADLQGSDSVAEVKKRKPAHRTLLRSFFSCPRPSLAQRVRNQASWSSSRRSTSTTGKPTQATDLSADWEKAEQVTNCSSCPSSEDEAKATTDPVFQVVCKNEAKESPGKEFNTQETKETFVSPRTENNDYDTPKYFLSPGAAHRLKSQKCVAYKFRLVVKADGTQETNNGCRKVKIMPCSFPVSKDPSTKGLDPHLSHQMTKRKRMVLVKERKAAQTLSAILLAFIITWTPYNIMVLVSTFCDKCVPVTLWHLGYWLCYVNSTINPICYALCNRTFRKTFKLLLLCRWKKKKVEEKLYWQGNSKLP
UniProt Q9ERZ4: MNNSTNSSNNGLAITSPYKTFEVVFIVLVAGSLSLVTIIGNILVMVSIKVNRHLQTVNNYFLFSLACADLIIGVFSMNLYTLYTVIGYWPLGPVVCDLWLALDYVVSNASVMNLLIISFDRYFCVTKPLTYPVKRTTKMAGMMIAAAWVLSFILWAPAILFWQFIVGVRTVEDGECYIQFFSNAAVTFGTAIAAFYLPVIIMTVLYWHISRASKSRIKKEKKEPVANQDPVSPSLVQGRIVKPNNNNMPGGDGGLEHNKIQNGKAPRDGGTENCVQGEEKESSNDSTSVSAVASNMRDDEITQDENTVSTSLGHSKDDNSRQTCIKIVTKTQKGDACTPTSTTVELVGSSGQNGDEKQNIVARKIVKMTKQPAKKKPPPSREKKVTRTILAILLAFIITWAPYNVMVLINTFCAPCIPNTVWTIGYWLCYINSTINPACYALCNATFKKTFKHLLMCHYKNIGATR
UniProt P12657: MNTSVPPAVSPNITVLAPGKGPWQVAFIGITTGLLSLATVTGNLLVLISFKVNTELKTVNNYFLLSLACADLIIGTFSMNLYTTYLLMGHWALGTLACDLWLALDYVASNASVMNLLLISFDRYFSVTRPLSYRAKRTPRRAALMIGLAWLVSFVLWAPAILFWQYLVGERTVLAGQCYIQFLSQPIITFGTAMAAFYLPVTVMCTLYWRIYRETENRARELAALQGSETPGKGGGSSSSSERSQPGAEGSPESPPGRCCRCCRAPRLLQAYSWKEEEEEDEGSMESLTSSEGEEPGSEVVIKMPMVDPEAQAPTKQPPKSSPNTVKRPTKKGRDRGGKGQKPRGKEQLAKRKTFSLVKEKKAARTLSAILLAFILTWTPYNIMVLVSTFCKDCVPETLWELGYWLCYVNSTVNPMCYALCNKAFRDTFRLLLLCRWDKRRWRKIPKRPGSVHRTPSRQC
UniProt P32211: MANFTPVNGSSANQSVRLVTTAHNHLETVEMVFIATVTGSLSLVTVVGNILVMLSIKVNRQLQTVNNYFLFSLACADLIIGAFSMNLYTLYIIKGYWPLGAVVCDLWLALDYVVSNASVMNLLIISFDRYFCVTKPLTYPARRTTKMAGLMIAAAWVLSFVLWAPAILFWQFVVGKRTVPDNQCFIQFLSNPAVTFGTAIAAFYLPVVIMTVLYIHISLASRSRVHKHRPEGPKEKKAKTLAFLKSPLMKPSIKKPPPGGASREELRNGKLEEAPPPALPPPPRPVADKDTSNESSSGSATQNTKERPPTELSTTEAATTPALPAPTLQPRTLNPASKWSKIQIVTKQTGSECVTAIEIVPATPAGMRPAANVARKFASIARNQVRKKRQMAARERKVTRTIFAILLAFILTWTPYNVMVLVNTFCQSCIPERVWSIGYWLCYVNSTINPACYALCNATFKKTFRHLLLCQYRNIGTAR
UniProt Q9ERZ3: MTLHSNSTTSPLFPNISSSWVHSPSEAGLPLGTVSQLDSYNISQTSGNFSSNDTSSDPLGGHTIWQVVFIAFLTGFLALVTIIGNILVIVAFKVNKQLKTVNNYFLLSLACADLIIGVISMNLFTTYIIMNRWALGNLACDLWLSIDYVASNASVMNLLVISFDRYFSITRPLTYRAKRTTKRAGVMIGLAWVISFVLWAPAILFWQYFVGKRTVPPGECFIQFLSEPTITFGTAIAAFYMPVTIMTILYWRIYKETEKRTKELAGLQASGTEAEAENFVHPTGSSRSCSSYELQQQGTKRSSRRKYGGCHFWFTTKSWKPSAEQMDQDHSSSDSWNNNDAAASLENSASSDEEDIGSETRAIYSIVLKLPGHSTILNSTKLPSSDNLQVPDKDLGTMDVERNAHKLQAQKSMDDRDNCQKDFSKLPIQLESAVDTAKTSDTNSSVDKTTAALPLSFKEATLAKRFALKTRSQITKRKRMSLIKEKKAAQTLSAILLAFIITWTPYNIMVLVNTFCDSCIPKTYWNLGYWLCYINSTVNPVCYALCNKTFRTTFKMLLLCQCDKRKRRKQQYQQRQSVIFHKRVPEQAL
UniProt Q00961: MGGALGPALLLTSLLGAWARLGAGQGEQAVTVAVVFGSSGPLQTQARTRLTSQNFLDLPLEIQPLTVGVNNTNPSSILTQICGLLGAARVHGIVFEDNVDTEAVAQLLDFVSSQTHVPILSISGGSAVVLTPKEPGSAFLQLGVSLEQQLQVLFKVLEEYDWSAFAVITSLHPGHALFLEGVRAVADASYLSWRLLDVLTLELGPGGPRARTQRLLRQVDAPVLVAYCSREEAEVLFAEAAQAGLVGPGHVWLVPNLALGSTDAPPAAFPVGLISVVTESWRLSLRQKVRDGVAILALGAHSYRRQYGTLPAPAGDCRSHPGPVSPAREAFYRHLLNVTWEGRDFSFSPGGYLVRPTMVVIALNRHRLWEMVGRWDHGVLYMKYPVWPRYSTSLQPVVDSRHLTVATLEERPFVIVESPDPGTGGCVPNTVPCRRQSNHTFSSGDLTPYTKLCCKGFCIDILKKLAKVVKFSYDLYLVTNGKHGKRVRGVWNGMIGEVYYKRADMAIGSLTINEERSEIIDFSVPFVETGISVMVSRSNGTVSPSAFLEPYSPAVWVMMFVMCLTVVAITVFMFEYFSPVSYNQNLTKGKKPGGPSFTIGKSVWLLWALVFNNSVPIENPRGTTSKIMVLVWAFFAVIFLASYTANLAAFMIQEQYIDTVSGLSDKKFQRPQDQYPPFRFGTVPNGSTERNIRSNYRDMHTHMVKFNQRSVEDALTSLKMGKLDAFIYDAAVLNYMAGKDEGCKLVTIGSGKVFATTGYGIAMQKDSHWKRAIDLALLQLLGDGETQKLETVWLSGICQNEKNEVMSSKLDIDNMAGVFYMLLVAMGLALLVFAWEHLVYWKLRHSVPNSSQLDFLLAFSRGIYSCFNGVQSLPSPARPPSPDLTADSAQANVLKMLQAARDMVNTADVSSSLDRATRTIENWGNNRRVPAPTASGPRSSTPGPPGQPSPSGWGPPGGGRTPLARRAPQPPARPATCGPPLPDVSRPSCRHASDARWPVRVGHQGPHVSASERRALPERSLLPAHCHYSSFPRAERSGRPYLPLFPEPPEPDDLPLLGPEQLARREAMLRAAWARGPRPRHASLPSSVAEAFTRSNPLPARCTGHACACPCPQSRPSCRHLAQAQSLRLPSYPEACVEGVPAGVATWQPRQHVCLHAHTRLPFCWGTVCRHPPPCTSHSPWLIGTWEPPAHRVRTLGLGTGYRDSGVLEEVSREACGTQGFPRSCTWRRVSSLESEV

How the values were obtained:
[1] = target: T1, Opioid receptor (Mus musculus) (UniProt P42866+P32300+P33534); experiment: Inhibition of the specific binding of [3H]morphine to Opioid receptors
[2] = target: T2, Muscarinic acetylcholine receptor (Mus musculus) (UniProt Q920H4+Q9ERZ4+P12657+P32211+Q9ERZ3); experiment: Inhibition of the specific binding of [3H]QNB to Muscarinic acetylcholine receptor
[3] = target: Glutamate receptor ionotropic, NMDA 2C (Rattus norvegicus) (UniProt Q00961); experiment: Inhibition of the specific binding of [3H]phencyclidine to phencyclidine receptor; settings: Mus musculus
[4] = target: T1, Opioid receptor (Mus musculus); experiment: Hill coefficient for binding of [3H]morphine to Opioid receptors
[5] = target: Glutamate receptor ionotropic, NMDA 2C (Rattus norvegicus) (UniProt Q00961); experiment: Hill coefficient for binding of [3H]phencyclidine to phencyclidine receptor; settings: Mus musculus
[6] = target: T2, Muscarinic acetylcholine receptor (Mus musculus); experiment: Hill coefficient for binding of [3H]QNB to Muscarinic acetylcholine receptor

Structure (SMILES)	K0.5 [1]	K0.5 [2]	K0.5 [3]	nH [4]	nH [5]	nH [6]
OC1CCCC(c2ccccc2)(N2CCCCC2)C1 (stereo unspecified)	27.7 µM and 11.5 µM	> 100 µM	0.9 µM and 2.2 µM	1 and 0.8	0.9 and 1	–
Oc1ccc(C2(N3CCCCC3)CCCCC2)cc1	35.4 µM	> 100 µM	20 µM	0.9	1	–
O[C@H]1CC[C@@](c2ccccc2)(N2CCCCC2)CC1	–	–	17 µM	–	1	–
O[C@H]1CC[C@](c2ccccc2)(N2CCCCC2)CC1	–	–	8.3 µM	–	1.1	–
OC1CCN(C2(c3ccccc3)CCCCC2)CC1	25 µM	> 100 µM	2.2 µM	0.9	1.2	–
Oc1cccc(C2(N3CCCCC3)CCCCC2)c1	0.06 µM	70 µM	0.03 µM	0.9	0.9	1
Oc1ccccc1C1(N2CCCCC2)CCCCC1	17 µM	> 100 µM	0.75 µM	0.8	1	–
c1ccc(C2(N3CCCCC3)CCCCC2)cc1 [PHENCYCLIDINE]	26 µM	30 µM	0.25 µM	0.9	1	0.8
